Experiments:
[1] = tested on: Bacillus subtilis; assay: PG labeling of live B. subtilis, fluorescence microscopy; format: cell-based; details: captured by azido/alkyne fluorophores
[2] = tested on: Escherichia coli; assay: PG labeling of live E. coli, fluorescence microscopy; format: cell-based; details: captured by azido/alkyne fluorophores

## C[C@@H](NN=[N+]=[N-])C(=O)O
[1]
  labeling of B. subtilis after click capture: labeled both E. coli and B. subtilis
[2]
  labeling of E. coli after click capture: labeled both E. coli and B. subtilis
